Measured values taken from ChEMBL document CHEMBL5226286, “The application of isatin-based multicomponent-reactions in the quest for new bioactive and druglike molecules” (Eur J Med Chem, 2021).

Assays:
Proteus mirabilis = settings: PTCC 1776
[1] = test system: Staphylococcus epidermidis; settings: PTCC 1435

Measured: MIC

GENTAMICIN
0.5 µg/mL: Proteus mirabilis | [1] | Staphylococcus aureus | Escherichia coli
